Target: Opiate Receptor K (Cavia porcellus, UniProt P41144)
Assay: Bond with the Opiate Receptor K in vitro (displacement of 3H ethylketocyclazocine, guinea-pig cerebella membranes)
Details: read-out: IC50 (50% inhibiting concentration), 9 3H ethylketo-cyclazocine 1 nM, Tris pH 7.7, 25° C., 40 minutes
Procedure: Membrane residues were used kept at -30° C. for about 30 days, and prepared from the cerebella of guinea-pigs. These residues were put back into suspension in Tris buffer pH 7.7 and 2 ml fractions were distributed in hemolysis tubes and 9^3 H ethylketo-cyclazocine InM and the product under test were added. The product was first tested at 5×10^-6 M (in triplicate). When the product tested displaced by more than 50%, the radio-activity bonded specifically to the receptor, it was tested again over a range of 7 doses to determine the dose which inhibited by 50% the radio-acitivity bonded specifically to the receptor. In this way, the 50% inhibiting concentration was determined.
The non-specific bonding was determined by the addition of the product known under the name U-50488 H at 10^-5 M (in triplicate). After incubating at 25° C. for 40 minutes, returning to the water-bath at 0° C. for 5 minutes, filtering under vacuum, and rinsing with Tris buffer pH 7.7, the radio-activity was counted in the presence of scintillating Trition. The results were expressed directly as the 50% inhibiting concentration (IC50), that is to say, in concentration of the product studied, expressed in nM, necessary in order to displace 50% of the specific radio-activity fixed on the receptor studied.

Protein sequences, listed by entry. Tags and fused reporters are not part of them.
UniProt P41144, whole entry: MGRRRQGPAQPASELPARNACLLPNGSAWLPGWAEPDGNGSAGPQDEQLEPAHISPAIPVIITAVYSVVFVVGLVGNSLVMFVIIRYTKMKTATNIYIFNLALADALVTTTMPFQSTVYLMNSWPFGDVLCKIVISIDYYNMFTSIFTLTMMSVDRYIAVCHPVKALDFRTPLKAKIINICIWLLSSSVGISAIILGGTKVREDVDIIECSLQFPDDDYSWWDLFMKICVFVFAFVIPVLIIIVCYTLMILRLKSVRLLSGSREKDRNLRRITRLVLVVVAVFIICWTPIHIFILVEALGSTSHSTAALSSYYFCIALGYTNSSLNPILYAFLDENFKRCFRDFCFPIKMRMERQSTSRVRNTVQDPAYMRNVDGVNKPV

## O=C(c1ccc(Cl)c(Cl)c1)N1CCC[C@@H]2CCC[C@@H](N3CCCC3)[C@@H]21 (relative stereo)
  IC50: 7.4 nM

Source: US4816465A, “Decahydroquinolines and analgesic use thereof” (dated 1989)
